Experiment [1] relates to human skin fibroblasts. In words: Proliferation of human skin fibroblasts (cell counting). The class given is cell-based. The settings on record: Skin fibroblast, read-out: Proliferation (IC50).
The target of experiment [2] is MRP4 (Homo sapiens, UniProt O15439). Conditions: cited from earlier work.

By UniProt entry, the sequences of proteins in these tests, tags left out. Where a name states a change or a piece, a line headed by the entry shows the natural chain unless it says otherwise.
UniProt O15439: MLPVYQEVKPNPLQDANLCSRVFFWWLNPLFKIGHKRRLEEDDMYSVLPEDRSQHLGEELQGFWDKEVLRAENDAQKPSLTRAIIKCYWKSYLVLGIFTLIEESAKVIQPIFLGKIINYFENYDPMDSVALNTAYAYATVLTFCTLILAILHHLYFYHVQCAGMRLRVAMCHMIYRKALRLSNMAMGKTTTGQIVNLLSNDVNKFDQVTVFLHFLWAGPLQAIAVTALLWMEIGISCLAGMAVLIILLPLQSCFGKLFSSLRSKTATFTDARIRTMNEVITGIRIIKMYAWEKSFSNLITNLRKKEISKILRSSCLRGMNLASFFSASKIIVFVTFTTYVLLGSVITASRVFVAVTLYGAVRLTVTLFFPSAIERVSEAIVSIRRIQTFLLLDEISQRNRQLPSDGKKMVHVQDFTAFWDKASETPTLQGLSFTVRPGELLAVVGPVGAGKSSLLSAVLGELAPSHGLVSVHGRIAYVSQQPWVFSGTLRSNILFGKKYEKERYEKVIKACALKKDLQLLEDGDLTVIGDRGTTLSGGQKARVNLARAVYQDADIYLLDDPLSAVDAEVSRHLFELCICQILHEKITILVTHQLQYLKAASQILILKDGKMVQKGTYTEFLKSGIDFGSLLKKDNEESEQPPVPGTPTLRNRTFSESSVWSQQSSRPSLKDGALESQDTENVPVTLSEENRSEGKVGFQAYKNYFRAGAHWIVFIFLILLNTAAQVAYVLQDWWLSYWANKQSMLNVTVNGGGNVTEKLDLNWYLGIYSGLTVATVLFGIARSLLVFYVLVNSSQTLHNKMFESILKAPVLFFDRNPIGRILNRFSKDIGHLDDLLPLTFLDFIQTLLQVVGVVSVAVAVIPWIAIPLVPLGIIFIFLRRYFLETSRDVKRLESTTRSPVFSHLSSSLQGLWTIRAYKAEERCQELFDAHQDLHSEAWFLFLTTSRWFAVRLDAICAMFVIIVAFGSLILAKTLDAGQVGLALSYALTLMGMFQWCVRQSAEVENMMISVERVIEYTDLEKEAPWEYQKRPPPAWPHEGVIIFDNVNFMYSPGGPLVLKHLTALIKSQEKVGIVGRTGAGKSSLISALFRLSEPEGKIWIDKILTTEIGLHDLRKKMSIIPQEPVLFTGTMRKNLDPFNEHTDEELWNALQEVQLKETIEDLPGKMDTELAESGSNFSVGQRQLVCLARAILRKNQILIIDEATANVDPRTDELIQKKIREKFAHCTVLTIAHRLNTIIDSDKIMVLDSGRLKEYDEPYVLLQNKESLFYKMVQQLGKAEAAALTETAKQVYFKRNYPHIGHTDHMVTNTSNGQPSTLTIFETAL

Like-named read-outs stand apart in the source and are kept apart here.

As to `OCCN(CCO)c1nc(N2CCCCC2)c2nc(N(CCO)CCO)nc(N3CCCCC3)c2n1` [Dipyramidole], in experiment [1], the IC50 was found to be 4000 nM.
For `CN(C)C(=O)CCSC(SCCC(=O)O)c1cccc(/C=C/c2ccc3ccc(Cl)cc3n2)c1` (stereo not drawn) [MK-571], the IC50 is approximately 1000 nM in experiment [2] (read-out: IC50, MRP4 mediated export of methotrexate, substrate methotrexate) and 1000 nM in experiment [2] (read-out: published inhibitory concentrations IC50 or Ki, MRP4).

These data come from patent US20080152640A1, “Means and Methods For Treating a Disease Which is Associated With an Excess Transport of Hyaluronan Across a Lipid Bilayer” (priority 2003, published 2008).
